{
  "source": "patent US11987804B2",
  "about": "“Rapamycin resistant cells” (Seattle Children's Hospital, priority 2018, dated 2024)",
  "key": {"CD4+ T cells [1]": {"test_system": "CD4+ T cells", "test": "Selective expansion of DISC/HA-FOXP3 edited Treg cells (flow cytometry for HA tag and FOXP3)", "assay_type": "cell-based, human", "conditions": "50 ng/mL IL-2, 10 nM Rapamycin or 100 nM AP21967"}, "CD4+ T cells [2]": {"test_system": "CD4+ T cells", "test": "Regulatory T cell marker phenotype of DISC-expressing edited Treg cells", "assay_type": "cell-based, human", "conditions": "IL-2 50 ng/mL, rapamycin 10 nM or AP21967 100 nM"}, "[3]": {"test_system": "primary human CD4+ T cells", "test": "Two-phase expansion protocol for μDISC edTreg", "assay_type": "cell-based", "conditions": "IL-2 50 ng/mL in media after editing, Expansion Phase 1", "protocol": "In a two-phase expansion protocol, cell expansion was conducted in two phases: Expansion Phase 1 tested rapamycin selection with or without IL-2 (50 ng/mL) in the recovery media, followed by Expansion Phase 2, addition of anti-CD3/CD28 beads, and removal of IL-2 from media. Generally, CD4 T cells were isolated at Day-4 from human PBMCs cultured in T cell media with 50 μg/mL IL-2 and anti-human CD3/CD28 beads. At Day-1, CD3/CD28 beads were removed. During Expansion Phase 1 (Days 0-9), gene editing was performed with CRISPR/Cas9 RNPs and AAV6 (an exemplary construct is shown in FIG. 13A). Cells were divided into three expansion cohorts as described below. Flow cytometry was performed at Day 2 to assess gene editing. At Day 9, cells were further divided into two expansion cohorts to test bead and antibody CD3/CD28 stimulation. Upon completion of Expansion Phase 2 (Day 16), flow cytometry was then performed to assess enrichment and expansion of edited cells.\nWithout being bound to theory, it is believed that Expansion Phase 1 promotes selective enrichment of DISC edTreg/μDISC edTreg in rapamycin, which allows edited cells to out-compete unedited cells prior to Expansion Phase 2, where CD3/CD28 stimulation will result in an expansion in the number of DISC edTreg. […]"}, "[4]": {"test_system": "primary human CD4+ T cells", "test": "Three-phase expansion protocol for μDISC edTreg (flow cytometry HA/FOXP3, cell counts)", "assay_type": "cell-based", "protocol": "Recovered cells after Expansion Phase 0 were then transferred to the G-Rex flask and expanded in rapamycin (Expansion Phase 1; Days 3-10) to allow DISC edTreg enrichment, followed by addition of anti-CD3/CD28 beads (Expansion Phase 2; Days 10-15). The same AAV construct as shown in FIG. 13A was used in this experiment.\nAfter Expansion Phase 1 (Day 10), successfully edited cells were assessed by flow cytometry."}, "[5]": {"conditions": "5 ng/mL IL-2 during Expansion Phase 0"}},
  "data": [
    {"substance": "IL-2: interleukin-2 cytokine added to T cell culture media", "values": [
      {"measurement": "percentage of double positive cells (expressing HA-FOXP3), DISC/HA-FOXP3", "setting": "CD4+ T cells [1]; 7 day post-treatment", "value": 4.92, "unit": "%"},
      {"measurement": "percentage of double positive cells (expressing HA-FOXP3), Mock", "setting": "CD4+ T cells [1]; 7 day post-treatment, mock cells", "value": 0.010, "unit": "%"},
      {"measurement": "percentage of double positive cells (expressing HA-FOXP3), DISC/HA-FOXP3", "setting": "CD4+ T cells [1]; 15 day post-treatment", "value": 2.12, "unit": "%"},
      {"measurement": "CD25+ FOXP3+", "setting": "CD4+ T cells [2]", "value": 3.98, "unit": "%"},
      {"measurement": "CD25+ FOXP3−", "setting": "CD4+ T cells [2]", "value": 8.50, "unit": "%"},
      {"measurement": "CD 127+ FOXP3+", "setting": "CD4+ T cells [2]", "value": 0.26, "unit": "%"},
      {"measurement": "CD 127+ FOXP3−", "setting": "CD4+ T cells [2]", "value": 8.84, "unit": "%"},
      {"measurement": "CTLA4+ FOXP3+", "setting": "CD4+ T cells [2]", "value": 3.17, "unit": "%"},
      {"measurement": "CTLA4+ FOXP3−", "setting": "CD4+ T cells [2]", "value": 1.33, "unit": "%"},
      {"measurement": "ICOS+ FOXP3+", "setting": "CD4+ T cells [2]", "value": 3.32, "unit": "%"},
      {"measurement": "ICOS+ FOXP3−", "setting": "CD4+ T cells [2]", "value": 0.40, "unit": "%"},
      {"measurement": "LAG3+ FOXP3+", "setting": "CD4+ T cells [2]", "value": 1.85, "unit": "%"},
      {"measurement": "LAG3+ FOXP3−", "setting": "CD4+ T cells [2]", "value": 3.43, "unit": "%"},
      {"measurement": "total cell yield (FIG. 13B)", "setting": "[3]", "value": "improved the total cell yield"},
      {"measurement": "number of μDISC edTreg (FIGS. 14A-14B)", "setting": "[4]; [5]", "value": "slightly fewer"},
      {"measurement": "μDISC edTreg share of the total cells", "setting": "[4]; [5]", "value": "~70", "unit": "%"},
      {"measurement": "enrichment rate (%) relative to unedited cells", "setting": "[4]; 50 ng/mL IL-2 during Expansion Phase 0", "value": "lowest enrichment rate"},
      {"measurement": "number of HA+ FOXP3+ edited cells (FIGS. 14A-14B)", "setting": "[4]; 50 ng/mL IL-2 during Expansion Phase 0, day 10 and 15 post-editing", "value": "highest number"},
      {"measurement": "Day-3 flow cytometry Q1", "setting": "[4]; Q1 = HA- FOXP3+, Expansion Phase 0 additive, 10 nM rapamycin or 100 nM AP21967", "value": 4.42, "unit": "%"},
      {"measurement": "Day-3 flow cytometry Q2", "setting": "[4]; Q2 = HA+ FOXP3+ successfully edited cells, Expansion Phase 0 additive, 10 nM rapamycin or 100 nM AP21967", "value": 16.40, "unit": "%"},
      {"measurement": "Day-10 flow cytometry Q1", "setting": "[4]; after Expansion Phase 1, Q1 = HA- FOXP3+, Expansion Phase 0 additive, 10 nM rapamycin or 100 nM AP21967", "value": 2.59, "unit": "%"},
      {"measurement": "Day-15 flow cytometry Q1", "setting": "[4]; after Expansion Phase 2, Q1 = HA- FOXP3+, Expansion Phase 0 additive, 10 nM rapamycin or 100 nM AP21967", "value": 3.97, "unit": "%"}
    ]}
  ]
}
